Measurements reported in patent US10287286B2, “Compounds” (Takeda Pharmaceutical Company Limited, priority 2015, dated 2019).

The chains behind the UniProt entries cited, without tags or fusion partners.
UniProt Q96KS0, whole entry: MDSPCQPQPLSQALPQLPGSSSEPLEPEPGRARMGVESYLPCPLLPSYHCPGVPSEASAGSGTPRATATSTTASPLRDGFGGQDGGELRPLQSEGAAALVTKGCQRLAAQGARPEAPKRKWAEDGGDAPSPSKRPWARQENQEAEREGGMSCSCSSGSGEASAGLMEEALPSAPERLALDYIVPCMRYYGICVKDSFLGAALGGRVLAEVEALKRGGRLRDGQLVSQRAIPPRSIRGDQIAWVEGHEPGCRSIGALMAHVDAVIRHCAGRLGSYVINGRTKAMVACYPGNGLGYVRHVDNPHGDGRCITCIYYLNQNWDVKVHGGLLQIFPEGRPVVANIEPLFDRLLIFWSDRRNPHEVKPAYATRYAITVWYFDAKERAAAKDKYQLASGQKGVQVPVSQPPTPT

target: PHD1 enzyme (residues 1-407) (Homo sapiens (Human), UniProt Q96KS0); assay: PHD1 Enzyme Assay (UPLC-MS detection of hydroxylated peptide product); assay type: biochemical; conditions: 20 nM, 60 min pre-incubation at room temperature

Compound | IC50 [nM]
N#Cc1ccc(-c2cc(C(=O)NCCO)cc3ncnn23)cc1 [Example 71, 5-(4-cyanophenyl)-N-(2-hydroxyethyl)-[1,2,4]triazolo[1,5-a]pyridine-7-carboxamide] | 904
CNC(=O)c1cc(-c2ccc(C#N)cc2)n2ncnc2c1 [Example 59, 5-(4-cyanophenyl)-N-methyl-[1,2,4]triazolo[1,5-a]pyridine-7-carboxamide] | 269
N#Cc1ccc(-c2ccnc3ncnn23)c(F)c1F [Example 207, 2,3-difluoro-4-{[1,2,4]triazolo[1,5-a]pyrimidin-7-yl}benzonitrile] | 2660
COCC(=O)Nc1cc(-c2ccc(C#N)c(F)c2)n2ncnc2c1 [Example 154, N-[5-(4-cyano-3-fluorophenyl)-[1,2,4]triazolo[1,5-a]pyridin-7-yl]-2-methoxyacetamide] | 490
CN(C)CCN(C)c1cc(-c2ccc(C#N)cc2)n2ncnc2n1 [Example 87] | 119
CN(C)CCOC(=O)Nc1cc(-c2ccc(C#N)c(F)c2)n2ncnc2c1 [Example 199, 2-(dimethylamino)ethyl N-[5-(4-cyano-3-fluorophenyl)-[1,2,4]triazolo[1,5-a]pyridin-7-yl]carbamate] | 111
CC(C)CCNc1cc(-c2ccc(C#N)cc2)n2ncnc2n1 [Example 95, 4-{5-[(3-methylbutyl)amino]-[1,2,4]triazolo[1,5-a]pyrimidin-7-yl}benzonitrile] | 61
Cc1cc(C#N)c(F)cc1-c1cc(N)nc2ncnn12 [Example 254, 4-{5-Amino-[1,2,4]triazolo[1,5-a]pyrimidin-7-yl}-2-fluoro-5-methylbenzonitrile] | 751
N#Cc1ccc(-c2cc(NCc3cccc(F)c3)cc3ncnn23)cc1 [Example 116, 4-(7-{[(3-fluorophenyl)methyl]amino}-[1,2,4]triazolo[1,5-a]pyridin-5-yl)benzonitrile] | 29
CC(=O)Nc1cc(-c2ccc(C#N)c(F)c2)n2ncnc2c1 [Example 139, N-[5-(4-cyano-3-fluorophenyl)-[1,2,4]triazolo[1,5-a]pyridin-7-yl]acetamide] | 77
Cn1cc(CNC(=O)c2cc(-c3ccc(C#N)cc3)n3ncnc3c2)cn1 [Example 62] | 490
N#Cc1ccc(-c2cc(N)cc3ncnn23)c(Cl)c1 [Example 259, 4-{7-Amino-[1,2,4]triazolo[1,5-a]pyridin-5-yl}-3-chlorobenzonitrile] | 205
N#Cc1ccc(-c2cc(S(=O)(=O)NCC3CC3)cc3ncnn23)cc1 [Example 177, 5-(4-Cyanophenyl)-N-(cyclopropylmethyl)-[1,2,4]triazolo[1,5-a]pyridine-7-sulfonamide] | 6900
N#Cc1ccc(-c2nccc3ncnn23)cc1F [Example 17, 2-fluoro-4-{[1,2,4]triazolo[1,5-c]pyrimidin-5-yl}benzonitrile] | 2160
N#Cc1ccc(-c2cc(O)cc3ncnn23)cc1 [Example 218, 4-{7-Hydroxy-[1,2,4]triazolo[1,5-a]pyridin-5-yl}benzonitrile] | 233
CN(C)CCOc1cc(-c2ccc(C#N)c(F)c2)n2ncnc2c1 [Example 129, 4-{7-[2-(dimethylamino)ethoxy]-[1,2,4]triazolo[1,5-a]pyridin-5-yl}-2-fluorobenzonitrile] | 299
N#Cc1ccc(-c2cc(CNCC3COC3)cc3ncnn23)cc1 [Example 186, 4-(7-{[(oxetan-3-ylmethyl)amino]methyl}-[1,2,4]triazolo[1,5-a]pyridin-5-yl)benzonitrile] | 1400
N#Cc1ccc(-c2cc(C(=O)NCc3ccc(Cl)cc3)cc3ncnn23)cc1 [Example 56, N-[(4-chlorophenyl)methyl]-5-(4-cyanophenyl)-[1,2,4]triazolo[1,5-a]pyridine-7-carboxamide] | 167
N#Cc1ccc(-c2cc(N)cc3ncnn23)cc1F [Example 146, 4-{7-Amino-[1,2,4]triazolo[1,5-a]pyridin-5-yl}-2-fluorobenzonitrile] | 27
CC(C)(C)OC(=O)N1CCN(c2cc(-c3ccc(C#N)cc3)n3ncnc3c2)CC1 [Example 143, tert-butyl 4-[5-(4-cyanophenyl)-[1,2,4]triazolo[1,5-a]pyridin-7-yl]piperazine-1-carboxylate] | 437
N#Cc1ccc(-c2cccc3ncnn23)c(N)n1 [Example 237, 6-Amino-5-{[1,2,4]triazolo[1,5-a]pyridin-5-yl}pyridine-2-carbonitrile] | 89
N#Cc1ccc(-c2cc(NCC3CCCO3)cc3ncnn23)cc1 (stereo not drawn) [Example 112, 4-{7-[(oxolan-2-ylmethyl)amino]-[1,2,4]triazolo[1,5-a]pyridin-5-yl}benzonitrile] | 20
N#Cc1ccc(-c2cc(N3CC4(COC4)C3)cc3ncnn23)cc1 [Example 141, 4-(7-{2-oxa-6-azaspiro[3.3]heptan-6-yl}-[1,2,4]triazolo[1,5-a]pyridin-5-yl)benzonitrile] | 115

Compound | IC50 [nM]
N#Cc1ccc(-c2cc(NC(=O)C3CC3)cc3ncnn23)cc1F [Example 174, N-[5-(4-cyano-3-fluorophenyl)-[1,2,4]triazolo[1,5-a]pyridin-7-yl]cyclopropanecarboxamide] | 34
N#Cc1ccc(-c2cc(NCc3ccccc3F)cc3ncnn23)cc1 [Example 115, 4-(7-{[(2-fluorophenyl)methyl]amino}-[1,2,4]triazolo[1,5-a]pyridin-5-yl)benzonitrile] | 13
CN(C)CCNc1cc(-c2ccc(C#N)cc2)n2ncnc2n1 [Example 72, 4-(5-{[2-(dimethylamino)ethyl]amino}-[1,2,4]triazolo[1,5-a]pyrimidin-7-yl)benzonitrile] | 5090
CN(C)C1CCN(c2cc(-c3ccc(C#N)cc3)n3ncnc3n2)C1 (stereo not drawn) [Example 73, 4-{5-[3-(dimethylamino)pyrrolidin-1-yl]-[1,2,4]triazolo[1,5-a]pyrimidin-7-yl}benzonitrile] | 5440
COC1CN(c2cc(-c3ccc(C#N)c(F)c3)n3ncnc3c2)C1 [Example 138, 2-fluoro-4-[7-(3-methoxyazetidin-1-yl)-[1,2,4]triazolo[1,5-a]pyridin-5-yl]benzonitrile] | 170
N#Cc1ccc(-c2cc(CNCc3cccc(Cl)c3)cc3ncnn23)cc1 [Example 188, 4-[7-({[(3-chlorophenyl)methyl]amino}methyl)-[1,2,4]triazolo[1,5-c]pyridin-5-yl]benzonitrile] | 800
N#Cc1ccc(-c2cc(NC(=O)CC(F)(F)F)cc3ncnn23)cc1F [Example 153, N-[5-(4-cyano-3-fluorophenyl)-[1,2,4]triazolo[1,5-a]pyridin-7-yl]-3,3,3-trifluoropropanamide] | 28
N#Cc1ccc(-c2cc(NCC3CCOCC3)cc3ncnn23)cc1 [Example 104, 4-{7-[(oxan-4-ylmethyl)amino]-[1,2,4]triazolo[1,5-a]pyridin-5-yl}benzonitrile] | 37
CC1CCCN1c1cc(-c2ccc(C#N)cc2)n2ncnc2n1 (stereo not drawn) [Example 89, 4-[5-(2-methylpyrrolidin-1-yl)-[1,2,4]triazolo[1,5-a]pyrimidin-7-yl]benzonitrile] | 360
Cc1cc(C#N)ncc1-c1cc(N)cc2ncnn12 [Example 248, 5-{7-Amino-[1,2,4]triazolo[1,5-a]pyridin-5-yl}-4-methylpyridine-2-carbonitrile] | 35
CC1CCN(C(=O)c2cc(-c3ccc(C#N)cc3)n3ncnc3c2)C1 (stereo not drawn) [Example 46, 4-[7-(3-methylpyrrolidine-1-carbonyl)-[1,2,4]triazolo[1,5-a]pyridin-5-yl]benzonitrile] | 1950
CC1CC1C(=O)Nc1cc(-c2ccc(C#N)c(F)c2)n2ncnc2c1 (stereo not drawn) [Example 157, N-[5-(4-cyano-3-fluorophenyl)-[1,2,4]triazolo[1,5-a]pyridin-7-yl]-2-methylcyclopropane-1-carboxamide] | 57
C[C@H]1CCCN1C(=O)c1cc(-c2ccc(C#N)cc2)n2ncnc2c1 [Example 45, 4-{7-[(2S)-2-methylpyrrolidine-1-carbonyl]-[1,2,4]triazolo[1,5-a]pyridin-5-yl}benzonitrile] | 755
N#Cc1ccc(-c2cc(CNC3CC3)cc3ncnn23)cc1 [Example 194, 4-{7-[(cyclopropylamino)methyl]-[1,2,4]triazolo[1,5-a]pyridin-5-yl}benzonitrile] | 2300
N#Cc1ccc(-c2cc(N3CCNCC3)cc3ncnn23)cc1 [Example 230, 4-[7-(Piperazin-1-yl)-[1,2,4]triazolo[1,5-a]pyridin-5-yl]benzonitrile] | 925
CN(C)CC(=O)Nc1cc(-c2ccc(C#N)c(F)c2)n2ncnc2c1 [Example 161, N-[5-(4-cyano-3-fluorophenyl)-[1,2,4]triazolo[1,5-a]pyridin-7-yl]-2-(dimethylamino)acetamide] | 123
CC(=O)N1CCN(c2cc(-c3ccc(C#N)cc3)n3ncnc3c2)CC1 [Example 231, 4-[7-(4-Acetylpiperazin-1-yl)-[1,2,4]triazolo[1,5-a]pyridin-5-yl]benzonitrile] | 199
N#Cc1ccc(-c2cc(NCC3(c4ccccc4)COC3)cc3ncnn23)cc1F [Example 128, 2-fluoro-4-(7-{[(3-phenyloxetan-3-yl)methyl]amino}-[1,2,4]triazolo[1,5-a]pyridin-5-yl)benzonitrile] | 215
Cc1ccc2ncnn2c1-c1ccc(C#N)c(F)c1 [Example 19, 2-fluoro-4-{6-methyl-[1,2,4]triazolo[1,5-a]pyridin-5-yl}benzonitrile] | 665
N#Cc1ccc(-c2c(F)ccc3ncnn23)c(F)c1 [Example 216, 3-Fluoro-4-{6-fluoro-[1,2,4]triazolo[1,5-a]pyridin-5-yl}benzonitrile] | 997
N#Cc1ccc(-c2cc(OCCN3CCCC3=O)cc3ncnn23)cc1F [Example 132, 2-fluoro-4-{7-[2-(2-oxopyrrolidin-1-yl)ethoxy]-[1,2,4]triazolo[1,5-a]pyridin-5-yl}benzonitrile] | 480
CC(=O)Nc1cc(-c2cc(F)c(C#N)cc2C)n2ncnc2c1 [Example 262, N-[5-(4-Cyano-5-fluoro-2-methylphenyl)-[1,2,4]triazolo[1,5-a]pyridin-7-yl]acetamide] | 108
